# Reference: PubChem BioAssay AID504845 (National Center for Advancing Translational Sciences (NCATS), 2011)
# Amino acid sequences for entries named in this document (tags omitted). A change or cut given only in a name is not applied to a line headed by its entry.
# UniProt P49798: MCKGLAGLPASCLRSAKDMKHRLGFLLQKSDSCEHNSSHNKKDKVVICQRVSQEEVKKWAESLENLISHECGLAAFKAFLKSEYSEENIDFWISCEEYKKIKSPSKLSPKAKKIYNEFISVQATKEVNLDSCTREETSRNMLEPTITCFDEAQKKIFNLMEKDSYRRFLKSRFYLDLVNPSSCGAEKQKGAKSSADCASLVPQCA
# The list shows a part of the results, in another mix than the full data. Inconclusive results are not listed. Calls of active or inactive are those of the source. The call rests on the fitted dose curve; in most records, active means well fitted inhibition curve with a large enough effect; inconclusive means small, poorly fitted or top-dose-only effect; inactive means no such curve, though single readings can be large or run the other way.
# Molecular target: Regulator of G-protein signaling 4 (Homo sapiens) (UniProt P49798)
# Experiment: Inhibitors of Regulator of G Protein Signaling (RGS) 4: qHTS; further: nearly all actives have a fitted effect of over 75% in size
# Settings: Transcreener GDP fluorescence polarization, RGS4-accelerated GTP hydrolysis
# [1] = at 114 µM (top of the series) unless noted
# On the % scale 0 is the no-effect control and ±100 the full control effect.
smiles,measurement,setting,value
O=P(Nc1nc2ccc(Cl)cc2s1)(c1ccccc1)c1ccccc1,"activity change, negative = inhibition",[1],inactive: -4.92%
CC(=O)Nc1ccc([As](=O)(O)O)cc1,"activity change, negative = inhibition",[1],inactive: -26.2%
O=C(O)c1ccccc1[As](=O)(O)O,"activity change, negative = inhibition",[1],inactive: -4.84%
CCCC1OP(N)(=O)OCC1CC (stereo unspecified),"activity change, negative = inhibition",[1],inactive: -11.5%
Oc1ccccc1CNc1ccccn1,"activity change, negative = inhibition",[1],inactive: 23.6%
Nc1cc(N)c2nonc2c1[N+](=O)[O-],"activity change, negative = inhibition",[1],inactive: -12.3%
CC(C)CC(=O)NC(Sc1ccc(Cl)cc1)C(Cl)(Cl)Cl (stereo unspecified),"activity change, negative = inhibition",[1],inactive: 19.7%
CN1CCCC(OC(=O)C(c2ccccc2)c2ccccc2)C1 (stereo unspecified),"activity change, negative = inhibition",[1],inactive: -5.86%
Clc1ccc(Cl)c(NC2=NCC(CBr)S2)c1 (stereo unspecified),"activity change, negative = inhibition",[1],inactive: -31%
COc1ccccc1OP(=O)(Nc1ccc(C)cn1)Oc1ccccc1OC,"activity change, negative = inhibition",[1],inactive: 26.3%
Cc1ccc(OP(=O)(Nc2nccs2)Oc2ccc(C)cc2)cc1,"activity change, negative = inhibition",[1],inactive: 27.5%
CN(C(=O)Cc1ccc(Cl)c(Cl)c1)[C@H]1CCCC[C@H]1N1CCCC1,"activity change, negative = inhibition",[1],inactive: -6.36%
Cc1ccc(N/C(=N/P(=O)(N2CCOCC2)N2CCOCC2)N2CCOCC2)cc1,"activity change, negative = inhibition",[1],inactive: -17.1%
NC(=O)c1cc([N+](=O)[O-])cc([N+](=O)[O-])c1N,"activity change, negative = inhibition",[1],inactive: 3.34% [at 56.9 µM]
O=[N+]([O-])c1cc(Oc2ccc([N+](=O)[O-])cc2C(F)(F)F)cc([N+](=O)[O-])c1,"activity change, negative = inhibition",[1],inactive: 4.2%
O=P1(N(CCCl)CCCl)OCCCN1CCCl (stereo unspecified),"activity change, negative = inhibition",[1],inactive: 7.82%
O=P1(N(CCCl)CCCl)Nc2ccccc2N1,"activity change, negative = inhibition",[1],inactive: 5.91%
COc1ccc2nc(NP(=O)(c3ccccc3)c3ccccc3)sc2c1,"activity change, negative = inhibition",[1],inactive: -7.88%
COc1cc(I)ccc1[As](=O)(O)O,"activity change, negative = inhibition",[1],inactive: -20%
Cc1c2c(nc3ccccc13)SC(C(Cl)Cl)C2 (stereo unspecified),"activity change, negative = inhibition",[1],inactive: 15.2%
O=C(OC1CN2CCC1CC2)C12CC3CC(CC(C3)C1)C2 (stereo unspecified),"activity change, negative = inhibition",[1],inactive: 21.1%
Cc1cc(=O)[nH]c(N[N+](=O)[O-])n1,"activity change, negative = inhibition",[1],inactive: 15.8%
CC(C)NC(=O)NP(=O)(Oc1ccccc1)Oc1ccccc1,"activity change, negative = inhibition",[1],inactive: 17%
O=C(OC1CN2CCC1CC2)c1cccc2[nH]cnc12 (stereo unspecified),"activity change, negative = inhibition",[1],inactive: -7.22%
CCN(CC)C(=S)SC(NC=O)C(Cl)(Cl)Cl (stereo unspecified),"activity change, negative = inhibition",[1],inactive: 24.6%
O=[N+]([O-])c1cc([N+](=O)[O-])c(-c2ccn[nH]2)s1,"activity change, negative = inhibition",[1],inactive: -33.3%
ClCCSc1nnc(-c2cccnc2)o1,"activity change, negative = inhibition",[1],inactive: 16.6%
COC(=O)C1(C)COP(=O)(N2CCCCCC2)OC1 (stereo unspecified),"activity change, negative = inhibition",[1],inactive: -13.7%
CC(C)c1ccc(OP(=O)(Nc2ccccn2)Oc2ccccc2F)cc1 (stereo unspecified),"activity change, negative = inhibition",[1],inactive: -8.33%
Cc1ccc(OP(=O)(Nc2ccc([N+](=O)[O-])cn2)Oc2ccc(C)cc2)cc1,"activity change, negative = inhibition",[1],inactive: 1.06%
C[As](=O)(O)c1cccc(C(=O)O)c1,"activity change, negative = inhibition",[1],inactive: 10.3%
O=[As](O)(c1ccc(O)cc1)c1ccccc1O,"activity change, negative = inhibition",[1],inactive: -31.9%
O=[N+]([O-])c1ccc(-c2cc([N+](=O)[O-])c(O)c([N+](=O)[O-])c2)cc1,"activity change, negative = inhibition",[1],inactive: -35.3%
COc1cc(C(=O)NCC2(N3CCOCC3)CCCCC2)ccc1OCC(C)C,"activity change, negative = inhibition",[1],inactive: 16.9%
O=P(Nc1ccccn1)(c1cccc2ccccc12)c1cccc2ccccc12,"activity change, negative = inhibition",[1],inactive: -7.5%
O=[N+]([O-])c1ccc(Nc2ccc(Oc3ccc([N+](=O)[O-])cc3[N+](=O)[O-])cc2)c([N+](=O)[O-])c1,"activity change, negative = inhibition",[1],inactive: 10.8%
CCOC(=O)Nc1cccc([As](=O)(O)O)c1,"activity change, negative = inhibition",[1],inactive: 4.2% [at 56.9 µM]
CCCCOc1ccc(C(=O)NCC2(N3CCCCC3)CCCCC2)cc1OC,"activity change, negative = inhibition",[1],inactive: -22.6%
CCOC(=O)Nc1ccc([As](=O)(O)O)c(O)c1,"activity change, negative = inhibition",[1],inactive: 4.98% [at 11.4 µM]
CC1CCNP(=O)(N(CCCl)CCCl)O1 (stereo unspecified),"activity change, negative = inhibition",[1],inactive: 9.92%
CCC(C)N(CC(C)C)C(=S)SC(NC(C)=O)C(Cl)(Cl)Cl (stereo unspecified),"activity change, negative = inhibition",[1],inactive: -51.6%
CCOP(=O)(Nc1cccc2cccnc12)OCC,"activity change, negative = inhibition",[1],inactive: -12.9%
O=C(OC1CN2CCC1CC2)c1cccc([N+](=O)[O-])c1 (stereo unspecified),"activity change, negative = inhibition",[1],inactive: -11.1%
CCOC(=O)c1ccc(NC(=O)C(C)(CCl)SC)cc1 (stereo unspecified),"activity change, negative = inhibition",[1],inactive: 26%
O=C(COc1ccccc1)OC1CN2CCC1CC2 (stereo unspecified),"activity change, negative = inhibition",[1],inactive: -5.54%
O=C(Nc1ccncc1[N+](=O)[O-])c1ccc([N+](=O)[O-])cc1[N+](=O)[O-],"activity change, negative = inhibition",[1],inactive: -0.88%
COP1(=S)c2c(C)nn(CCC#N)c2N=C(c2ccc(F)cc2)N1C (stereo unspecified),"activity change, negative = inhibition",[1],inactive: -1.55%
CN(C(=O)Cc1ccc(Cl)c(Cl)c1)[C@@H]1CCCC[C@H]1N1CCCC1,"activity change, negative = inhibition",at 56.9 µM (top of the series),inactive: 1120%
same,"activity change, negative = inhibition",at 114 µM (top of the series),inactive: 4.7%
CC(C)/C=N\N=C(\N)N[N+](=O)[O-],"activity change, negative = inhibition",[1],inactive: -17.2%
CC1(CBr)Cn2c(nc3ccccc3c2=O)S1 (stereo unspecified),"activity change, negative = inhibition",[1],inactive: -31.2%
COc1ccccc1CNC(=O)COC(=O)C(O)(c1ccccc1)c1ccccc1,"activity change, negative = inhibition",[1],inactive: 18.7%
Clc1n[nH]nc1-c1nn[nH][15n]1,"activity change, negative = inhibition",[1],inactive: -11.1%
CC(C)(C)C(=O)NC(Sc1ncccn1)C(Cl)(Cl)Cl (stereo unspecified),"activity change, negative = inhibition",[1],inactive: -18%
CCC1=CC2Cc3nc4ccc(Cl)cc4c(N)c3C(C1)C2 (stereo unspecified),"activity change, negative = inhibition",[1],inactive: 5.62%
O=P1(Nc2ccccn2)COc2ccccc2OC1,"activity change, negative = inhibition",[1],inactive: 11% [at 11.4 µM]
CCOP(=O)(NC(=NC(C)c1ccccc1)NC(C)c1ccccc1)OCC (stereo unspecified),"activity change, negative = inhibition",[1],inactive: 13%
CCOP(=O)(Nc1ccc(C)cn1)OCC,"activity change, negative = inhibition",[1],inactive: 19.3%
CN(CCCl)Cc1cc(Cl)c(NC2=NCCN2)c(Cl)c1,"activity change, negative = inhibition",at 56.9 µM (top of the series),inactive: -6.23%
same,"activity change, negative = inhibition",at 114 µM (top of the series),inactive: -8.52%
Nc1cccc([As](=O)(O)c2ccccc2)c1,"activity change, negative = inhibition",[1],inactive: 25.2%
O=[As](O)(c1cccs1)c1cccs1,"activity change, negative = inhibition",[1],inactive: -19.5%
Cc1ccc(OCC(=O)OC2CN3CCC2CC3)cc1 (stereo unspecified),"activity change, negative = inhibition",[1],inactive: -4.09%
NS(=O)(=O)c1cccc(NC(=O)COC(=O)C(O)(c2ccccc2)c2ccccc2)c1,"activity change, negative = inhibition",[1],inactive: -10.9%
O=P1(Nc2ccc(Br)cn2)COc2ccccc2OC1,"activity change, negative = inhibition",[1],inactive: -0.428%
O=P1(Nc2ncccn2)COc2ccccc2OC1,"activity change, negative = inhibition",[1],inactive: 2% [at 11.4 µM]
